# According to patent US5610140A, “Bradykinin receptor antagonists with neurokinin receptor blocking activity” (priority 1994, dated 1997):
# The chains behind the UniProt entries cited, without tags or fusion partners.
# UniProt P25023, whole entry: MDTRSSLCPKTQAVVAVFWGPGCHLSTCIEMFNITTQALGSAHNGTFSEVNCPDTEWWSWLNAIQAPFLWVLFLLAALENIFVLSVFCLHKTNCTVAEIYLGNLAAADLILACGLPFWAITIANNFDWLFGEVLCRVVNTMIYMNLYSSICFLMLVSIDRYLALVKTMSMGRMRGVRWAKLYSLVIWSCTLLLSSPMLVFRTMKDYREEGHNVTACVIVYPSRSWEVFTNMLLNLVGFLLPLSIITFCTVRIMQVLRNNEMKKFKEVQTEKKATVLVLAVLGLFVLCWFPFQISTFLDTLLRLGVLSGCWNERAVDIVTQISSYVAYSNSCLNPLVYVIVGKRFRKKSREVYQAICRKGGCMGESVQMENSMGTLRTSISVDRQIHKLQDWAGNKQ
# Biological target: Bradykinin 2 (BK2) receptor (Rattus norvegicus, UniProt P25023)
# Details: rat uterus, washed at 10 minute intervals for 40 minutes
compound,measurement,value
"CC(C)C[C@H](NC(=O)[C@@H](Cc1ccccc1)NC(=O)[C@H](CS)NC(=O)[C@H](Cc1ccccc1)NC(=O)CNC(=O)[C@@H]1C[C@@H](O)CN1C(=O)[C@@H]1CCCN1C(=O)[C@H](CCCNC(=N)N)NC(=O)[C@H](N)CCCNC(=N)N)C(=O)N[C@@H](CCCNC(=N)N)C(=O)O [CP-0126, D-Arg-Arg-Pro-Hyp-Gly-Phe-Cys-D-Phe-Leu-Arg, reference compound]",BK2 % Recovery (wash-off),100%
